# Test results published in ChEMBL document CHEMBL4177580, “New 5-HT1A, 5HT2A and 5HT2C receptor ligands containing a picolinic nucleus: Synthesis, in vitro and in vivo pharmacological evaluation” (Bioorg Med Chem, 2017).
# Chains of the proteins cited; added tags and fusions are not shown.
# UniProt P14842, whole entry: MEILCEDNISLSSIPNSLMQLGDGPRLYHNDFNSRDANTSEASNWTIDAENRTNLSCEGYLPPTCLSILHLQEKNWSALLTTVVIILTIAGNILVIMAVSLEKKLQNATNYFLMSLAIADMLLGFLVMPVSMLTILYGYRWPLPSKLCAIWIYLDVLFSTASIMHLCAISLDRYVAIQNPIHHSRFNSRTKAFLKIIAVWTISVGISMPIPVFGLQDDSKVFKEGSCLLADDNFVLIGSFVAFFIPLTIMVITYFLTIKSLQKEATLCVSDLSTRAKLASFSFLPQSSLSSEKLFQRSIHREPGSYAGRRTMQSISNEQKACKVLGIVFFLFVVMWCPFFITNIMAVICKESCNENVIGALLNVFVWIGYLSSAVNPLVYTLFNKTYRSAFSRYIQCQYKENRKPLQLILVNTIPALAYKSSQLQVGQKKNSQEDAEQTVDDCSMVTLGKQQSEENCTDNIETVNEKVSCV
# Calls of active or inactive are those of the source. The rule behind the calls is not given here.
# Assays:
# [1] = target: 5-hydroxytryptamine receptor 2A (Rattus norvegicus) (UniProt P14842); test: Antagonist activity at 5-HT2A receptor in Sprague-Dawley rat ielum assessed as reduction in 5-HT-evoked contraction relative to control; assay type: functional
# [2] = target: 5-hydroxytryptamine receptor 2A (Rattus norvegicus) (UniProt P14842); test: Agonist activity at 5-HT2A receptor in Sprague-Dawley rat ileum assessed as induction of contraction; assay type: functional
Structure (SMILES),Emax [1],Activity [2]
O=C(NCCN1CCN(c2ccccc2)CC1)c1ccccn1,inactive,inactive
COc1ccc(N2CCN(CCNC(=O)c3ccccn3)CC2)cc1,inactive,inactive
